# Data reported in PubChem BioAssay AID624126 (The Scripps Research Institute Molecular Screening Center, 2012).
# By UniProt entry, the sequences of proteins in these tests, tags left out.
# UniProt P08173, whole entry: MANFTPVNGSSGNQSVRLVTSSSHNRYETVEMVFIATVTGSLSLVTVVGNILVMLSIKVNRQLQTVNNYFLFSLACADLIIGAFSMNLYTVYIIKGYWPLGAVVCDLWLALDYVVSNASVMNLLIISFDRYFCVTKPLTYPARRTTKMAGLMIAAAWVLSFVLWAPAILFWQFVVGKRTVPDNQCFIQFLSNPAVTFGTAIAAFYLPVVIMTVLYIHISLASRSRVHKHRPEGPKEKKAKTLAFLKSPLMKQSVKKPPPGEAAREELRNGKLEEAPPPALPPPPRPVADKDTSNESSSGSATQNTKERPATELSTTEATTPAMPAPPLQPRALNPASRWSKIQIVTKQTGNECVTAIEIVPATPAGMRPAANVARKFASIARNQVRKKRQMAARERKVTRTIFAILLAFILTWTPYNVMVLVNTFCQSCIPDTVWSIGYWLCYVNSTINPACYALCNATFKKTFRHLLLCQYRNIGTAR
# The list shows a part of the results, in another mix than the full data. Some tests of the compounds listed are not included; inactive here does not mean inactive elsewhere. Activity calls are given as the source filed them.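 Rule for the calls: active = activation above its plate's cutoff, the mean activation of sample wells plus 3 SD; inactive = the rest.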
# Target: Muscarinic acetylcholine receptor M4 (Homo sapiens) (UniProt P08173)
# Test: CHRM4 PAMs potentiating acetylcholine calcium signal – CHO-K1 cells, Fluo-8 calcium fluorescence, primary screen (AID 624126)
# Conditions: CHO-K1 hM4/Gqi5, Fluo-8 calcium fluorescence, ACh EC20; at 3 µM; active compounds read high; 0% = ACh EC20, 100% = maximal ACh
row,SMILES,activation
1,COc1ccc(Br)c(C(=O)NCC2(N3CCCCC3)CCCCC2)c1,inactive: -0.56%
2,C=C(C)C#CC(O)(C(=O)OC1CCN(C)CC1)c1ccccc1 (stereo not drawn),inactive: -11.5%
3,CN(C)c1cccc(C(=O)NCC2(N(C)C)CCCCC2)c1,inactive: 6.24%
4,O=C(OCCN1CCCC1)C(O)(c1ccccc1)c1ccccc1,inactive: -10.3%
5,CC(C)Oc1ccc(C(=O)NCC2(N(C)C)CCCCC2)cc1,inactive: 0.13%
6,O=C(OC1CN2CCC1CC2)C(CO)(c1ccccc1)c1ccccc1 (stereo not drawn),inactive: -19.9%
7,COc1ccc(Cl)cc1C(=O)NCC1(N(C)C)CCCCC1,inactive: -2.44%
8,COc1cccc(C(=O)NCC2(N3CCCCC3)CCCCC2)c1,inactive: 3.69%
9,O=C(NCC1(N2CCCCC2)CCCCC1)c1cccc(Cl)c1,inactive: 1.63%
10,CN(C)C1(CNC(=O)c2ccc(Br)cc2)CCCCC1,inactive: 4.44%
11,COc1cc(C(=O)NCC2(N(C)C)CCCCC2)c([N+](=O)[O-])cc1OC,inactive: 8.89%
12,O=C(NCC1(N2CCCCC2)CCCCC1)c1cc(F)c(F)cc1Cl,inactive: 1.57%
13,C=CCN1CCN(CCOC(=O)C(O)(c2ccccc2)c2ccccc2)CC1,inactive: -22.3%
14,O=C(NCC1(N2CCCCC2)CCCCC1)c1cccc(Br)c1,inactive: -3.45%
15,Cc1cc(C(=O)NCC2(N3CCCCC3)CCCCC2)ccc1[N+](=O)[O-],inactive: -4.1%
16,COc1ccc(C(=O)NCC2(N(C)C)CCCCC2)cc1,inactive: 2.31%
17,CN(C)c1ccc(C(=O)NCC2(N(C)C)CCCCC2)cc1,inactive: 10.8%
18,Cc1ccccc1C(=O)NCC1(N2CCCCC2)CCCCC1,inactive: -3.25%
19,CC(C)N1C(=O)CC2(CCN(CCOC(=O)C(O)(c3ccccc3)c3ccccc3)CC2)C1=O,inactive: 3.14%
20,COc1cc(SC)ccc1C(=O)NCC1(N(C)C)CCCCC1,inactive: -0.06%
21,CCN(CC)CC(C)C(C)OC(=O)C(O)(c1ccccc1)c1ccccc1 (stereo not drawn),inactive: -40.7%
22,Cc1ccc(C(=O)NCC2(N3CCCCC3)CCCCC2)cc1,inactive: -0.7%
23,O=C(NCC1(N2CCCCC2)CCCCC1)c1cc([N+](=O)[O-])ccc1Cl,inactive: -3.61%
